# According to US20050020613A1, “Sustained release opioid formulations and method of use” (priority 2002, published 2005):
# Type: in vivo
# Settings: dose equianalgesic to a 15 mg dose of hydrocodone
# Protocol: Equianalgesic doses of various opioids, in comparison to a 15 mg dose of hydrocodone, are set forth in Chart 1 below: […]
smiles,measurement,value
CN1CC[C@]23c4c5ccc(O)c4O[C@H]2C(=O)CC[C@H]3[C@H]1C5 [Hydromorphone],Equianalgesic Doses of Opioids: Calculated Dose,3.375 mg
